Test results as given in patent US20250032525A1 (priority 2021, published 2025).

Test system: Brcal^−/−;p53^−/− tumors
Type: in vivo, FVB mice
Details: DOX 5 mg/kg

Question: Which “Time to relapse and resistance to therapy” value does the source give for `COc1cccc2c1C(=O)c1c(O)c3c(c(O)c1C2=O)C[C@@](O)(C(=O)CO)C[C@@H]3O[C@H]1C[C@H](N)[C@H](O)[C@H](C)O1` [DOX, doxorubicin] here?
Answer: ≤ 60 days
